In this assay the target is 5'-methylthioadenosine/S-adenosylhomocysteine nucleosidase (Escherichia coli (strain K12), UniProt P0AF12). The assay is described as follows: Enzyme Activity Assay. Particulars: pH 7.5; 25 °C. From the text: Enzyme activity assay using various bacterial species of 5'-Methylthioadenosine nucleosidases (MTANs) excepted for MTAP, for human MTAP.

Chains of the proteins cited; added tags and fusions are not shown. Lines headed by an entry give the natural chain unless they say otherwise; changes in a name come on top.
UniProt P0AF12: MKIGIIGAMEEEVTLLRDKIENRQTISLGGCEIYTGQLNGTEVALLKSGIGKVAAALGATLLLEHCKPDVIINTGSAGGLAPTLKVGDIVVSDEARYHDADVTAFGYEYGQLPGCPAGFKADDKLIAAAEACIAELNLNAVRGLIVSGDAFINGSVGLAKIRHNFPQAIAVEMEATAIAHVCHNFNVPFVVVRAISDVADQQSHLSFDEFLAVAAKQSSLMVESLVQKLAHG

In the case of `CSC[C@H]1CN(Cc2c[nH]c3c(N)ncnc23)C[C@@H]1O` [DADMe-ImmA-Me], the dissociation constant Kd – broadly, the free concentration of one partner at which half of the binding sites on the other are occupied at equilibrium, for simple one-to-one binding – is 2 pM.
